CCT chaperon mod = changes cytosolic chaperonin activity; activity change, % (no concentration beside the values), hits read low; actives 0.3% (n = 360,000); purified chaperonin ATPase assay, HTRF ADP detection, 30 min; AID 651819; in the data active means activity change below about -30%; further: on the % scale 0 is the no-effect control and ±100 the full control effect
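TRiC at 40 or 20 nM final (batch-dependent) in 30 mM Tris pH 7.4, 100 mM KCl, 5 mM MgCl2, 1 mM DTT, with compound at single 76 uM and 10 uM ATP, 30 min at 37 deg C. ADP detected by HTRF Transcreener, 665/615 ratio.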
Rango-impB inh = Rango-importin beta binding inhibition. AID 540263. Potency, µM (highest dose often 92.2 µM), inactives show at the highest dose inhibition of complex formation. actives 0.031% (n = 340,000). Rango CFP/YFP FRET sensor + importin beta, 45 min;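 further: potency means the concentration at half of the fitted maximal effect; 0% = DMSO wells and 100% = buffer wells lacking importin beta; nearly all actives have a fitted effect of over 15% in size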
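FRET biosensor (snurportin 1 IBB flanked by EYFP and cerulean), 50 nM, with compound 5 min, then 0.125 microM importin beta in PBS, 1 mM DTT, 0.02% Tween-20, 0.1% BSA. CFP/YFP ratio read after 45 min at room temperature; pre-read flags interference.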
Rango dissoc inh = inhibitors of RanGTP-induced Rango-importin beta complex dissociation | O95149+P62826 | Biochemical FRET Rango-importin beta, RanGTP-induced dissociation | Potency, µM (titrated, usually from 46.1 µM), for inactives: at the highest dose activity change, negative = inhibition | actives 0.071% (n = 340,000); further: potency means the concentration at half of the fitted maximal effect; % of control where 0% means no effect; nearly all actives have a fitted effect of over 45% in size
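Quantitative HTS using a FRET biosensor: 0.1 uM Rango, 0.25 uM importin beta, 0.6 uM Ran, 2 mM GTP, 0.2 uM RCC1 final, PBS with DTT, Tween-20 and BSA. Post-read taken 45 min after Ran addition.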
MmCpn inh = inhibitors of Methanococcus maripaludis chaperonin TRiC (MmCpn). AID 504842. Potency, µM (doses to about 76.9 µM), without a hit: at the top dose activity, negative = inhibition, hits mostly inhibitors. actives 0.031% (n = 330,000). purified Mm-Cpn ATPase, ADP Transcreener TR-FRET; active means well fitted inhibition curve with a large enough effect; inconclusive means small, poorly fitted or top-dose-only effect; further: potency means the concentration at half of the fitted maximal effect; on the % scale 0 is the no-effect control and ±100 the full control effect; nearly all actives have a fitted effect of over 80% in size
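ATPase read-out: TR-FRET ADP immunoassay (anti-ADP Eu cryptate vs ADP-d2), ex 320 nm, em 590/665 nm; signal drops as ADP forms. Enzyme 25 nM, ATP 10 uM, 30 min at 37°C after 10 min compound preincubation.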
hERG WT inh = KCNH2 (human, wildtype) channel inhibition; U2OS, BacMam KCNH2, thallium flux FluxOr; stronger effect = lower value; activity change, % at 1.84 µM; actives 0.37% (n = 340,000); AID 720551;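 active means maximum activity change below -70%; inconclusive means maximum activity change between -70% and -50%; inactive means maximum activity change above -50%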; further: on the % scale 0 is the no-effect control and ±100 the full control effect
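U2OS cells were transduced with wild-type KCNH2 virus (2.03 x 10^8 / mL) for 4 h at room temperature, then cultured overnight at 37 C. Thallium flux was read with FluxOr dye. Rate constants were normalized to DMSO controls.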
KCNH2 3.1 inh = inhibitors of human KCNH2 3.1 potassium channel isoform | U2OS KCNH2 3.1, thallium flux FluxOr; stronger effect = lower value | activity change, % (tested at about 1.8 µM) | actives 0.95% (n = 340,000) | AID 720553;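 active means maximum activity change below -70%; inconclusive means maximum activity change from -70% to -50%; inactive means maximum activity change above -50%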;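 further: thallium influx rate constant from kinetic fluorescence after stimulation buffer; on the % scale 0 is the no-effect control and ±100 the full control effect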
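Normalized rate constant (relative to positive and negative DMSO controls) derived from a 2 min kinetic fluorescence read after stimulation; U2OS cells expressing the 3.1 isoform via virus at 1.77 x 10^8 /mL.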
Active calls of the source: *; ? = inconclusive; · = not tested or not shown; [ ] = dose if it differs, or a comment. Sampled rows, rich in hits. Any-hit rate of the full collection: about 1.4%. Unless noted, the call rests on the fitted dose curve.

cpd | Structure | KCNH2 3.1 inh | MmCpn inh | Rango dissoc inh
1 | Cc1cc(C)n(S(=O)(=O)/C=C/c2ccccc2)n1 | -9 | -1% | ?
2 | NC(=O)c1ccc(NC(=O)CSC(=O)c2ccccc2)cc1 | 4 | -1% | 0%
3 | Cc1ccc(Oc2ncnc(N)c2[N+](=O)[O-])cc1 | 6 | 1% | -20%
4 | Cc1ccc(N(c2ncnc(N)c2[N+](=O)[O-])C2CCCCC2)cc1 | -86* | 0% | 24%
5 | CCOC(=O)C1CCN(C(=O)C2CC(=O)N(c3ccc(C)cc3)C2)CC1 (centres undefined) | -10 | 1% | 1%
6 | CC(C)C[C@H]1CN=C(N(C)C)N1CCc1cccc(F)c1 | -107* | 0% | -6%
7 | O=C(NCc1ccc2c(c1)OCO2)C1CCN(c2ncccn2)CC1 | -5 | -1% | 6%
8 | Cc1ccnc(N2CCC(C(=O)NCc3ccc4c(c3)OCO4)CC2)n1 | -16 | -15% | 44%
9 | COc1cccc(NC2=Nc3cccc4cccc2c34)c1 | -7 | -1% | 2%
10 | Cc1ccc(NC(=O)c2ccc3c(c2)S(=O)(=O)c2ccccc2C3=O)cc1S(=O)(=O)N1CCOCC1 | -190* | -3% | 1%
11 | COc1ccc([C@]23Cc4cc(OC)c(OC)cc4C(O2)c2c(cc(C)n(Cc4ccccc4)c2=O)O3)cc1 | · | 1%[15.4 µM] | ·
12 | Cc1cccc(CSCC(=O)N2CCN(S(=O)(=O)c3ccccc3C#N)CC2)c1 | 8 | · | ·
13 | COc1ccc([C@@H]2Sc3cc(OC)ccc3N(CCN(C(C)C)C(C)C)C(=O)[C@H]2OC(C)=O)cc1 | -100* | 2% | -17%
14 | OCCN1CCN(CCCN2c3ccccc3Sc3ccc(C(F)(F)F)cc32)CC1 | -6 | 3%[15.4 µM] | -2%
15 | CC(CN1CCN(CCOCCO)CC1)CN1c2ccccc2Sc2ccc(Cl)cc21 (centres undefined) | -102* | · | ·

cpd | Rango-impB inh | hERG WT inh | CCT chaperon mod
1 | 0% | -88* | -1
2 | -1% | -36 | 1
3 | 0% | 3 | -3
4 | 2% | 14 | -1
5 | 2% | 13 | -3
6 | 2% | 9 | -2
7 | -3% | 6 | 1
8 | -2% | -195* | -2
9 | 58µM* | -3 | -2
10 | 1% | -136* | -3
11 | · | · | ·
12 | · | -238* | -2
13 | -1% | -90* | -3
14 | 1% | 7 | -1
15 | · | 0 | 4

Next structures follow:
cpd | Structure | KCNH2 3.1 inh | MmCpn inh | Rango dissoc inh
16 | CC(C)c1cc(C(C)C)c(S(=O)(=O)NNC(=O)c2ccncc2)c(C(C)C)c1 | 4 | -2% | -10%
17 | Cc1ccc(N2CCN(C(=O)Nc3cccc([N+](=O)[O-])c3)CC2C)cc1 (centres undefined) | -74* | 2% | 6%
18 | COc1cccc(/C=N/NC(=O)c2cccc3ccccc23)c1OC | -12 | · | -4%
19 | Cc1cccc(C(=O)Nc2ccc(N3CCC(CCN4CCOCC4)CC3)c(C(=O)O)c2)c1 | · | -9% | ·
20 | O=C(NC1CCCCC1)c1cc(-c2ccc(F)cc2)on1 | 0 | 2% | 8%
21 | O=C(NC1CCCCC1)c1cc(-c2cccs2)on1 | -71* | 1% | 1%
22 | Cc1ccc2nc(-c3ccccc3)cc(C(=O)N(C)CC(=O)Nc3ccccc3Br)c2c1 | 4 | ? | 17%
23 | CC(C)CC(=O)c1c[nH]c(C(=O)N2CCN(Cc3ccccc3)CC2)c1 | 12 | 1% | 4%
24 | NC(=S)c1cc2cc(Cl)ccc2oc1=O | -1 | -2% | 10%
25 | Cc1ccc2nc(-c3ccc(N)cc3)sc2c1 | 5 | -5% | 16%
26 | Nc1ccc(-c2nc3cc(N)ccc3s2)cc1 | -10 | -16% | -6%
27 | O=C(NC1CCCc2ccccc21)c1cncc(Br)c1 (centres undefined) | -71* | 0% | -2%
28 | CC(C)CN1CCNC(=O)C1CC(=O)NCCc1ccc(C(F)(F)F)cc1 (centres undefined) | 2 | 32µM* | -12%
29 | CC(C)CN1CCNC(=O)C1CC(=O)NCCc1cnn(-c2ccccc2)c1 (centres undefined) | -114* | 2% | -9%
30 | O=C(C(=O)N1CCCC1)c1c(-c2ccccc2)[nH]c2ccccc12 | 4 | 1% | -7%

cpd | Rango-impB inh | hERG WT inh | CCT chaperon mod
16 | 2% | -12 | -1
17 | 3% | -77* | -3
18 | -1% | -2 | -1
19 | · | · | ·
20 | 2% | 3 | -3
21 | -1% | -10 | 0
22 | 4% | -2 | -2
23 | -3% | -14 | 3
24 | 26µM* | 2 | 1
25 | ? | 1 | 0
26 | ? | 6 | -42*
27 | 0% | 3 | 1
28 | 0% | 3 | -1
29 | 1% | 3 | 1
30 | -2% | 1 | -1

Some of these compounds in order of number of heavy atoms, smallest number first:
cpd | Structure | KCNH2 3.1 inh | MmCpn inh | Rango dissoc inh
3 | Cc1ccc(Oc2ncnc(N)c2[N+](=O)[O-])cc1 | 6 | 1% | -20%
20 | O=C(NC1CCCCC1)c1cc(-c2ccc(F)cc2)on1 | 0 | 2% | 8%
17 | Cc1ccc(N2CCN(C(=O)Nc3cccc([N+](=O)[O-])c3)CC2C)cc1 (centres undefined) | -74* | 2% | 6%
29 | CC(C)CN1CCNC(=O)C1CC(=O)NCCc1cnn(-c2ccccc2)c1 (centres undefined) | -114* | 2% | -9%

cpd | Rango-impB inh | hERG WT inh | CCT chaperon mod
3 | 0% | 3 | -3
20 | 2% | 3 | -3
17 | 3% | -77* | -3
29 | 1% | 3 | 1

Continued.
cpd | Structure | KCNH2 3.1 inh | MmCpn inh | Rango dissoc inh
31 | Cc1cc(C)cc(NC(=O)Nc2ccc(-n3ccc(C(F)(F)F)n3)cc2)c1 | -3 | 1% | 0%
32 | COc1ccccc1NC(=O)Nc1ccc(-n2ccc(C(F)(F)F)n2)cc1 | -201* | -1% | 10%
33 | O=C(CSc1ccc(F)cc1)NC(=O)NCc1ccccc1 | -6 | -6% | ?
34 | COc1cccc(C(C)(O)c2nc(-c3ccc(C)c(C)c3)cs2)c1 (centres undefined) | · | · | ·
35 | COc1ccc(C(=O)N2CCC(C(=O)c3ccc(F)cc3)CC2)cc1 | -39 | 3% | 9%
36 | COc1ccc(C(=O)C2CCN(C(=O)c3ccc(OC)cc3)CC2)cc1 | -84* | 1% | 2%
37 | O=C(NC1=NCCS1)c1cccc(OC(F)F)c1 | 2 | -2% | 13%
38 | CCOC(=O)C(=O)NCC(c1cccs1)S(=O)(=O)c1ccc(F)cc1 (centres undefined) | -138* | 1% | -2%
39 | CCOC(=O)C(=O)NCC(c1cccs1)S(=O)(=O)c1ccc(C)cc1 (centres undefined) | -18 | 0% | -7%
40 | CC(C)Cc1cc(CN2CCCC(CO)(Cc3cccc(Cl)c3)C2)[nH]n1 (centres undefined) | ? | -2% | 0%
41 | Cc1ccc(-n2cc(CN3CCC(CO)(Cc4cccc(C(F)(F)F)c4)CC3)cn2)cc1 | -99* | 2% | 0%
42 | CC(C)Cc1cc(CN2CCC(CO)(Cc3cccc(C(F)(F)F)c3)CC2)[nH]n1 | -83* | -3% | -3%
43 | COc1ccc(NC(=O)COC(=O)c2cc(SC)ccc2Cl)c(OC)c1 | -8 | -5% | 19%
44 | COc1cccc(-c2csc(N3CCN(C(=S)Nc4ccccc4C)CC3)n2)c1 | 1 | -5% | -14%

cpd | Rango-impB inh | hERG WT inh | CCT chaperon mod
31 | 3% | 10 | 0
32 | -1% | -124* | 0
33 | -1% | -23 | -4
34 | · | · | -2
35 | -2% | 27 | 0
36 | 0% | -4 | -1
37 | 5% | -13 | 0
38 | 0% | -10 | -2
39 | -4% | -11 | -1
40 | 1% | 11 | -1
41 | -5% | -84* | -5
42 | -3% | -105* | 1
43 | 0% | -5 | -2
44 | ? | -1 | -1

Assay outcomes deposited in PubChem BioAssay by National Center for Advancing Translational Sciences (NCATS).
